{
  "source": "paper PMC8712509",
  "about": "(International Journal of Nanomedicine, 2021)",
  "test_system": "SGC-7901 tumor",
  "assay": "In vivo antitumor activity",
  "design": "species or system BALB/c nude mice",
  "settings": "2.5 mg OXA/kg iv every 2 days, tumor-bearing mice, among groups",
  "data": [
    {"smiles": "O=C1[O][Pt]2([NH][C@@H]3CCCC[C@H]3[NH]2)[O]C1=O", "note": "(relative stereo) [OXA, (1R-trans)-(1,2-cyclohexanediamine-N,N’)[oxalic acid (2-)-O,O’] platinum]", "values": [
      {"measurement": "organ coefficients (heart, liver, spleen, lungs, kidneys)", "value": "no significant differences"}
    ]}
  ]
}
